Test results as given in EP0116944B1 (priority 1983, dated 1984).

Columns and labels:
[1] = tested on: Vasopressin-induzierten Koronarspasmen; conditions: oral, 40 mg/Tier, Ratten
[2] = tested on: systolischen Blutdruck; assay: Effect on blood pressure in conscious dogs (sublingual administration); assay type: in vivo; conditions: Hunde
[3] = tested on: Blutdruck anästhesierter Ratten; assay: Effect on blood pressure of anaesthetised rats; assay type: in vivo; conditions: narkotisierte Ratten
[4] = Comparative pharmacokinetics (i.v., p.o.) in a conscious dog; conditions: wacher Hund
[5] = tested on: Blutdruck anästhesierter Hunde; assay: Effect on blood pressure of anaesthetised dogs; conditions: narkotisierte Hunde
[6] = tested on: Blutdruck anästhesierter Kaninchen; assay: Effect on blood pressure of anaesthetised rabbits; conditions: narkotisierte Kaninchen
[7] = tested on: hypotensive Wirkung; assay: Hypotensive effect after pretreatment with intravenous dihydroergotamine (DHE); assay type: in vivo; conditions: Vorbehandlung mit intravenösem Dihydroergotamin (DHE)

O=[N+]([O-])OCC(O)CO (stereo not shown)
Dauer der antianginösen Wirkung gegenüber Vasopressin [1]: 2 to 3 h
Einfluß auf den systolischen Blutdruck [2]: senkten
Wirkungsdauer gegenüber GTN ([2]; in höherer Konzentration): für viel längere Zeiten wirksam als GTN
Beginn der Wirkung ([2]; systolischer Blutdruck): 2,1 min
Wirkung, mal schwächer als GTN ([3]; hypotensive effect, intraduodenal): 38 mal
Wirkungsdauer gegenüber GTN [3]: ging deutlich über die von GTN
Bioverfügbarkeit ([4]; i. v., p. o.): 58%
Halbwertzeit [4]: 3,4 h
Stärke des hypotensiven Effekts gegenüber GTN ([5]; intraduodenal): nur geringfügig schwächer als GTN
Wirkungsdauer gegenüber GTN [5]: ging deutlich über die von GTN
Stärke des hypotensiven Effekts gegenüber GTN ([6]; intraduodenal): nur geringfügig schwächer als GTN
Wirkungsdauer gegenüber GTN [6]: ging deutlich über die von GTN
hypotensive Wirkung nach Vorbehandlung mit DHE [7]: erheblich herabgesetzt
